# Columns and labels:
# HUVEC cells = assay: In-vitro VEGF-induced Matrigel tube formation assay; format: cell-based, human; settings: versus sunitinib
# Description: The in vitro tube formation assay was assessed using ibidi μ-Slides (15-well, ibidi GmbH, Martinsried, Germany) in accordance with manufacturer’s protocol. Briefly, growth factor reduced Matrigel (10 μl) (Sigma, St. Louis MO) was added to the inner well of ibidi μ-Slides, and incubated at 37 °C for 1 h. […] 10,000 HUVEC cells in 50 μl of above growth medium was added to Matrigel (Sigma, St. Louis MO, USA) coated ibidi μ-Slides. After 6 h of incubation at 37 °C, the supernatant was discarded, and 50 μl of serum-free medium with diluted calcein AM (6.25 μg/ml) was added to above ibidi μ-Slides. After incubation in the dark at room temperature for 30 min, the μ-Slides were washed with PBS (50 μl) and fluorescence pictures were taken at 485 nm with a Leica DM1000 LED microscope (Leica Microsystems, Wetzlar, Hessen, Germany).
# HCT116 cells = assay: Cell proliferation assay (MTT), HCT116; settings: versus Detroit 551
structure (smiles),measurement,setting,value
"CCN(CC)CCN1Cc2[nH]c(/C=C3\C(=O)Nc4ccc(S)cc43)c(C)c2C1=O [Compound 15, (Z)-3-((5-(2-(diethylamino)ethyl)-3-methyl-4-oxo-1,4,5,6-tetrahydropyrrolo[3,4-b]pyrrol-2-yl)methylene)-5-mercaptoindolin-2-one]",potency in inhibiting in vitro tube formation relative to sunitinib in terms of IC50,HUVEC cells,threefold stronger
same,selective index (SI) HCT116,HCT116 cells,>4.27

# Source: paper PMC5539068, “Structural optimization and evaluation of novel 2-pyrrolidone-fused (2-oxoindolin-3-ylidene)methylpyrrole derivatives as potential VEGFR-2/PDGFRβ inhibitors” (Chemistry Central Journal, 2017)
